Experimental data from ChEMBL document CHEMBL3244082, “5-allyl-9-oxobenzomorphans. 3. Potent narcotic antagonists and analgesics-antagonists in the series of substituted 2',9beta-dihydroxy-6,7-benzomorphans” (1977).

Test system: Rattus norvegicus
Assay: Narcotic antagonist activity in sc dosed rat assessed as reversal of oxymorphone-induced loss of righting reflex

Structure (SMILES)	ED50 [mg/kg]
C=CC[C@]12CCN(CC3CC3)[C@H](Cc3ccc(O)cc31)[C@@]2(C)O	0.02
C=CC[C@]12CCN(CC3CC3)[C@H](Cc3ccc(O)cc31)[C@@]2(C)O.O=C(O)C(O)C(O)C(=O)O	0.005
